# Antibody variant affinities, Ab-14 heavy chain, assay B

Target: peptide PDVDLGDISGINAS, taken from heptad repeat 2 (HR2) of SARS-CoV-2 spike.

Parent scFv Ab-14: VH joined to VL by a (GGGGS)3 linker. Changes lie in the heavy chain CDRs alone.
VH: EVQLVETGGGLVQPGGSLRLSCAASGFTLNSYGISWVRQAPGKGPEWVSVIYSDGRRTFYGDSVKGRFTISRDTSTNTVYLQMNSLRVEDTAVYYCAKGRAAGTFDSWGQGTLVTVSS
VL: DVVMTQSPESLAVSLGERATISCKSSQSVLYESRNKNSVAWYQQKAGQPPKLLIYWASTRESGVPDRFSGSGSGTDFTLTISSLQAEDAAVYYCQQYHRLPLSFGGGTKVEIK

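Phage display of a naive human antibody library on the peptide gave the parent. These sequences belong to a second round, designed from the earlier measurements on random variants of the parent. Group labels follow the data file (En: ensemble of fine-tuned language models; HC: hill climbing; Gen: genetic algorithm; Gibbs: Gibbs sampling; a sequence that several methods proposed may carry one label only). AlphaSeq pools MATa yeast showing the antibodies with MATalpha yeast showing the peptide. Mating (16 h, 30 °C) was followed by selection of diploids and sequencing of their barcodes. Each replicate has its own calibration line, from reference interactions of the BCL2 family. Mating was done six times.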

Variants are written as CDR1, CDR2 and CDR3 of the heavy chain (limits as in the source). Parent: GFTLNSYGIS, VIYSDGRRTFYGDSVK, GRAAGTFDS.
This list holds designs with more than six substitutions.
Values are log10 of the apparent Kd in nM; lower means stronger binding.
The mean shown is taken over the replicates in which the pair was detected.
"nd" means that the variant was in the library but no mating with the target was seen in any replicate; the authors take this as a sign of poor binding, and no number exists.
The list is sorted by this average, lowest first, undetected variants last.

For GFDLNEYGIS / VIYADGRRTAYLNSVK / GEAAGTFDV [En_HC], the assay gave -0.96 (6 of 6 replicates; controls 0 of 18). Variant GFDLNEYGIS / VIYADGRRTAYIDSVK / GNVAGTFDI [En_Gen] gave -0.83 (6 of 6 replicates; controls 1 of 18). Variant GFDLDEYGIS / VIYADGMRTYYADDVK / GNVAGTFDV [En_Gen] showed -0.65 (6 of 6 replicates; controls 0 of 18). For GFDLNEYGIS / VIYADGVRTAYADDVK / GNVAGTFDT [En_Gen], the assay gave -0.53 (6 of 6 replicates; controls 0 of 18). Variant GFDLNEYGIS / VIYADGMRTAYTDDVK / GNVAGTFDV [En_Gen] gave -0.46 (6 of 6 replicates; controls 0 of 18).

Variant GFDLNEYGIS / VIYADGRRTFYSDSVK / GTIGGTFDM [En_HC] showed -0.44 (6 of 6 replicates; controls 0 of 18). With GFDLNEYGIS / VIYADGMRTAYVDSVK / GNTAGTFDI [En_Gen] the result was -0.43 (6 of 6 replicates; controls 0 of 18). For GFDLNEYGIS / VIYADGRRTFYQDSFK / GETAGTFDQ [En_HC], the assay gave -0.42 (6 of 6 replicates; controls 1 of 18). Variant GFDLNEYGIS / VIYADGRRTAYIDSVK / GNVAGTFDQ [En_Gen] showed -0.42 (6 of 6 replicates; controls 0 of 18). With GFDLNEYGIS / VIYADGRRKAYADKVK / GENAGTFNV [En_HC] the result was -0.39 (6 of 6 replicates; controls 0 of 18).

For GFDLNEYGIS / VIYADGRRTAYTDSVK / GHAAGTFDV [En_HC], the assay gave -0.33 (6 of 6 replicates; controls 0 of 18). With GFDLNEYGIS / VIYADGQRTAYADSVK / GEVAGTFDV [En_Gen] the result was -0.32 (6 of 6 replicates; controls 0 of 18). For GFDLNEYGIS / VIYADGLRTAYTDSVK / GNQAGTFDV [En_Gen], the assay gave -0.28 (6 of 6 replicates; controls 1 of 18). With GFDLNEYGIS / VIYADGSRTAYSDSVK / GQNAGTFDI [En_Gen] the result was -0.24 (6 of 6 replicates; controls 3 of 18). Variant GFDLNEYGIS / VIYADGQRTFYADSVK / GNNAGTFDI [En_Gen] gave -0.23 (6 of 6 replicates; controls 0 of 18).

Variant GFSLDEYGIS / VIYADGMRTAYADSVK / GNQAGTFDV [En_Gen] showed -0.21 (6 of 6 replicates; controls 0 of 18). Variant GFDLNEYGIS / VIYADGMRTFYVDSVK / GQLAGTFDF [En_HC] showed -0.18 (6 of 6 replicates; controls 0 of 18). With GFDLNDYGIS / VIYADGMRTAYIDSVK / GEQAGTFDL [En_HC] the result was -0.18 (6 of 6 replicates; controls 0 of 18). Variant GFDLDEYGIS / VIYADGRRTFYQDSVK / GQEAGTFDQ [En_HC] gave -0.11 (6 of 6 replicates; controls 0 of 18). Variant GFDLNEYGIS / VIYADGQRTAYADSVK / GNAAGTFDV [En_Gen] gave -0.07 (6 of 6 replicates; controls 1 of 18).

For GFDLNEYGIS / VIYADGKRTFYADSVK / GSEAGTFNM [En_HC], the assay gave 0.02 (6 of 6 replicates; controls 0 of 18). For GFDLDEYGIS / VIYADGRRTAYADSVK / GSNAGTFDM [En_HC], the assay gave 0.10 (6 of 6 replicates; controls 0 of 18). Variant GFDLNEYGIS / VIYADGKRTVYADSVK / GNNAGTFDI [En_Gen] showed 0.21 (6 of 6 replicates; controls 0 of 18). For DFNLNEYGIS / VIYADGERASYLDKVK / GQISGTFDT [En_Gibbs], the assay gave 0.56 (6 of 6 replicates; controls 2 of 18). Variant GFNLDECGIS / VIYADGRRQMYANSVK / GEIGGTFLM [En_Gibbs] gave 1.08 (6 of 6 replicates; controls 0 of 18).

Variant GFDLNEYGIS / VIYADGRRTQYIDSVK / GEVAGTFDM [En_HC] gave 1.35 (5 of 6 replicates; controls 0 of 18). Variant GNNLDEYGIS / VIYADGQRTYYAQDVK / GKTGDNAFI [En_Gibbs] showed 2.61 (1 of 6 replicates; controls 0 of 18). Variant GFNLSEYGIS / VIYADGNRTYYAPNVK / GQNLDVLNM [En_Gibbs] showed nd (0 of 6 replicates; controls 1 of 18). With GPGLQEYGIS / VIYADGIRSAYTDDVK / GQNAGHFLV [En_Gibbs] the result was nd (0 of 6 replicates; controls 0 of 18). With GFMLDEYGIS / VIYADGVRTMYIDSVK / GLNGMICDI [En_Gibbs] the result was nd (0 of 6 replicates; controls 0 of 18).

With GQNLDEYGIS / VIYADGMRKWYADSVK / GNMSAGLVA [En_Gibbs] the result was nd (0 of 6 replicates; controls 0 of 18). With GGDIQDYGIS / VIYADGQRAAYADEVK / GNIGGIFST [En_Gibbs] the result was nd (0 of 6 replicates; controls 0 of 18). Variant GYDLDDYGIS / VIYADGKRTSYAEDVK / GNIGGSFMN [En_Gibbs] showed nd (0 of 6 replicates; controls 0 of 18). Variant GDSLEEYGIS / VIYADGSRTSYQESVK / GLYIGMLDV [En_Gibbs] gave nd (0 of 6 replicates; controls 0 of 18). Variant GFDLEEYGIS / VIYADGKRMAYSNKVK / GLMAGTMID [En_Gibbs] showed nd (0 of 6 replicates; controls 0 of 18).

With DFNLNEYGIS / VIYADGVRASYRNTVK / GQISGDFDL [En_Gibbs] the result was nd (0 of 6 replicates; controls 0 of 18). Variant GADLNEYGIS / VIYADGRSTYYANSFK / GHNAGTFNS [En_Gibbs] showed nd (0 of 6 replicates; controls 0 of 18). For GKKLDEYGIS / VIYADGQRAAYTEDVK / GLQNNVQIV [En_Gibbs], the assay gave nd (0 of 6 replicates; controls 0 of 18). Variant GADINEYGIS / VIYADGLSTYYANSFK / GHNAGTFNM [En_Gibbs] showed nd (0 of 6 replicates; controls 0 of 18). For GMSLDEYGIS / VIYADGVRCEYANTVK / GELAGFFML [En_Gibbs], the assay gave nd (0 of 6 replicates; controls 1 of 18).

Variant GFNIDEYGIS / VIYADGQRLSYDDNVK / GGITGTFTN [En_Gibbs] gave nd (0 of 6 replicates; controls 0 of 18).

For reference, 5 entries of the list once more:

{"CDR-H1": "GFNIDEYGIS", "CDR-H2": "VIYADGQRLSYDDNVK", "CDR-H3": "GGITGTFTN", "group": "En_Gibbs", "log10 Kd (nM), mean": "nd", "replicates with signal": "0 of 6", "empty controls": "0 of 18"}
{"CDR-H1": "GGDIQDYGIS", "CDR-H2": "VIYADGQRAAYADEVK", "CDR-H3": "GNIGGIFST", "group": "En_Gibbs", "log10 Kd (nM), mean": "nd", "replicates with signal": "0 of 6", "empty controls": "0 of 18"}
{"CDR-H1": "GFDLNEYGIS", "CDR-H2": "VIYADGRRTQYIDSVK", "CDR-H3": "GEVAGTFDM", "group": "En_HC", "log10 Kd (nM), mean": "1.35", "replicates with signal": "5 of 6", "empty controls": "0 of 18"}
{"CDR-H1": "GFDLEEYGIS", "CDR-H2": "VIYADGKRMAYSNKVK", "CDR-H3": "GLMAGTMID", "group": "En_Gibbs", "log10 Kd (nM), mean": "nd", "replicates with signal": "0 of 6", "empty controls": "0 of 18"}
{"CDR-H1": "GFDLNEYGIS", "CDR-H2": "VIYADGMRTAYTDDVK", "CDR-H3": "GNVAGTFDV", "group": "En_Gen", "log10 Kd (nM), mean": "-0.46", "replicates with signal": "6 of 6", "empty controls": "0 of 18"}

The parent sequence was in this pool as ten entries: three were never detected, three once, and four in most replicates, with averages from 0.34 to 2.37.
The range of this assay differs from that of the first round, and the authors advise against merging the two.
Nonspecific signal, from three strains lacking the peptide, appeared in 1% of pairings of all heavy chain designs, centred on 2.08 (5% of these signals below 0.84); values are not corrected for it. For each scFv, signals with the empty controls are counted beside the result.
In the paper, a design with two or fewer of six values counts as a poor binder.

The measurements come from Li et al. 2023 (doi:10.1038/s41467-023-39022-2) through the FLAb antibody collection.